Assay results reported in patent US20250188102A1, “TRIAZINE COMPOUND, INTERMEDIATE THEREOF, PREPARATION METHOD THEREFOR AND USE THEREOF” (priority 2022, published 2025).

Key:
[1] = target: 3CL protease of 2019-nCoV (Severe acute respiratory syndrome coronavirus 2 (2019-nCoV) (SARS-CoV-2), UniProt P0DTD1); assay: biochemical
[2] = rat

| Compound | IC50 [1] [nM] | Eh [2] [%] |
| --- | --- | --- |
| [2H]C([2H])([2H])n1cnc(Cn2c(=O)[nH]/c(=N\c3cc4cn(C)nc4cc3Cl)n(Cc3cc(F)ccc3F)c2=O)n1 [Compound I-26] | 29 |  |
| C[C@]12CC[C@H]3[C@@H](CCC4=CC(=O)CC[C@@]43C)[C@@H]1CC[C@@H]2O [Testosterone] |  | 99.5 |
